Patent publication US10138214B2, “Substituted triazoles and methods relating thereto” (Neurocrine Biosciences, Inc., priority 2015, dated 2018)

Assays:
MES-induced seizures [1] = assay: Maximal electroshock (MES) test, mice i.p.; conditions: Mouse (IP), mpk=mg/kg; for MES active at (single dose): single dose at which shown active
MES-induced seizures [2] = assay: Maximal electroshock (MES) test, rats p.o.; conditions: Rat (PO), mpk=mg/kg; for MES active at (single dose): single dose at which shown active

Compound | MES active at (single dose) (MES-induced seizures [1]) | MES active at (single dose) (MES-induced seizures [2]) | MES ED50 (MES-induced seizures [1]) | MES ED50 (MES-induced seizures [2])
CCNc1cn(Cc2c(F)cccc2F)nn1 | MES active at 100 mpk | MES active at 30 mpk |  | 
CC[C@@H](C(=O)Nc1cn(Cc2c(F)cccc2F)nn1)N1CCCC1=O | MES active at 300 mpk |  |  | 
CN(C)c1cn(Cc2ccccc2)nn1 | MES active at 100 mpk |  |  | 
CNc1cn(Cc2c(F)cccc2F)nn1 | MES active at 100 mpk | MES active at 30 mpk |  | 
COC[C@@H](N)C(=O)Nc1cn(Cc2c(F)cccc2F)nn1 |  | MES active at 30 mpk | MES ED50 40 mpk | 
N[C@H](CO)C(=O)Nc1cn(Cc2c(F)cccc2F)nn1 | MES active at 100 mpk |  |  | MES ED50 29 mpk
N[C@H](Cc1ccccc1)C(=O)Nc1cn(Cc2c(F)cccc2F)nn1 |  |  | MES ED50 56 mpk | MES ED50 24 mpk
O=C(CCc1cccc(Cl)c1)Nc1cn(Cc2ccc(F)cc2)nn1 | MES active at 100 mpk |  |  | 
O=C(CCc1cccnc1)Nc1cn(Cc2c(F)cccc2F)nn1 | MES active at 300 mpk |  |  | 
OCCNc1cn(Cc2c(F)cccc2F)nn1 | MES active at 30 mpk | MES active at 30 mpk |  | 
N[C@@H](Cc1ccccc1)C(=O)Nc1cn(Cc2c(F)cccc2F)nn1 [Compound 3a, (2S)-2-amino-N-{1-[(2,6-difluorophenyl)methyl]-1H-1,2,3-triazol-4-yl}-3-phenylpropanamide] | MES active at 100 mpk |  |  | MES ED50 25 mpk
O=C(Nc1cn(Cc2c(F)cccc2F)nn1)[C@@H]1COCCN1 [Compound 3c, (3S)—N-{1-[(2,6-difluorophenyl)methyl]-1H-1,2,3-triazol-4-yl}morpholine-3-carboxamide] |  | MES active at 15 mpk | MES ED50 20 mpk | 
O=C(Nc1cn(Cc2c(F)cccc2F)nn1)[C@H]1COCCN1 [Compound 3d, (3R)—N-{1-[(2,6-difluorophenyl)methyl]-1H-1,2,3-triazol-4-yl}morpholine-3-carboxamide] |  |  | MES ED50 73 mpk | MES ED50 24 mpk
CN(C)c1cn(Cc2c(F)cccc2F)nn1 [Compound 8a, [1-(2,6-difluoro-benzyl)-1H-[1,2,3]triazol-4-yl]-dimethyl-amine] |  |  | MES ED50 27 mpk | MES ED50 9 mpk
Fc1cccc(F)c1Cn1cc(N2CCOCC2)nn1 [Compound 10a, 4-{1-[(2,6-difluorophenyl)methyl]-1H-1,2,3-triazol-4-yl}morpholine] |  |  | MES ED50 31 mpk | MES ED50 44 mpk
Fc1cccc(F)c1Cn1cc(N2CCCC2)nn1 [Compound 10f, 1-[(2,6-difluorophenyl)methyl]-4-(pyrrolidin-1-yl)-1H-1,2,3-triazole] |  | MES active at 30 mpk | MES ED50 73mpk | 
O=C1CCCN1c1cn(Cc2c(F)cccc2F)nn1 [Compound 14a, 1-{1-[(2,6-difluorophenyl)methyl]-1H-1,2,3-triazol-4-yl}pyrrolidin-2-one] | MES active at 100 mpk |  |  | MES ED50 28 mpk
O=C1NCCN1c1cn(Cc2c(F)cccc2F)nn1 [Compound 16a, 1-{1-[(2,6-difluorophenyl)methyl]-1H-1,2,3-triazol-4-yl}imidazolidin-2-one] |  |  | MES ED50 8 mpk | MES ED50 7 mpk
